From patent US9388149B2, “Disubstituted 3,4-diamino-3-cyclobutene-1,2-dione compounds for use in the treatment of chemokine-mediated diseases” (GALDERMA RESEARCH & DEVELOPMENT, priority 2011, dated 2016)

Protein sequences, listed by entry. Tags and fused reporters are not part of them. Lines headed by an entry give the natural chain unless they say otherwise; changes in a name come on top. Residues count along the entry.
UniProt P32248, 25-378: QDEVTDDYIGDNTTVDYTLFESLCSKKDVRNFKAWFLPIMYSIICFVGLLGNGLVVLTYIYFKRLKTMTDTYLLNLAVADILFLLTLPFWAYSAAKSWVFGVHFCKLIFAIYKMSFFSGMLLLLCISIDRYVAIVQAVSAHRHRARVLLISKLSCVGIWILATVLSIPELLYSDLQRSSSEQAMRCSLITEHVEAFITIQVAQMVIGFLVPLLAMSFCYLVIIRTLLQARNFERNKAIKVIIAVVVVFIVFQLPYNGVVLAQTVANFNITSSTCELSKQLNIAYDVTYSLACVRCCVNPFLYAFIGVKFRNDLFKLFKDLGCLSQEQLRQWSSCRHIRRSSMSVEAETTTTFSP
UniProt P49682: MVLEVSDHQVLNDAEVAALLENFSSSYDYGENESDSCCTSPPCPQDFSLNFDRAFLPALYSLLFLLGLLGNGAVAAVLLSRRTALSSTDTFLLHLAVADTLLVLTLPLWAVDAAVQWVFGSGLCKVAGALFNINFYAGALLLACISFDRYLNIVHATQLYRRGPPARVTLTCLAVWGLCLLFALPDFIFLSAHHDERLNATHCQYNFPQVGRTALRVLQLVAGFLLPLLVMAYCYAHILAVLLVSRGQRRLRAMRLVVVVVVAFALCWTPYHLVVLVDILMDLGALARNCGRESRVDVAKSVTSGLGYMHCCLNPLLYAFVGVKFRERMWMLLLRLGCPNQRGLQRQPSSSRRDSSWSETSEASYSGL
UniProt P51679: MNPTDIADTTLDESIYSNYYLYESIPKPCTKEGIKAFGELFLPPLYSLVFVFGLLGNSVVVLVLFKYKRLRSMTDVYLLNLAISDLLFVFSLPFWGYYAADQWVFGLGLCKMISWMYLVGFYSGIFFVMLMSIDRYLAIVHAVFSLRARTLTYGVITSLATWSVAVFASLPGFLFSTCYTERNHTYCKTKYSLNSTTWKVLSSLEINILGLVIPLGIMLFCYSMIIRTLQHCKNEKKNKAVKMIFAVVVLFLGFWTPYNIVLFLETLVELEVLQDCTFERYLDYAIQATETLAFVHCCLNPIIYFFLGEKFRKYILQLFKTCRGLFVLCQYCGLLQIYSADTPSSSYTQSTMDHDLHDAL
UniProt P25024, whole entry: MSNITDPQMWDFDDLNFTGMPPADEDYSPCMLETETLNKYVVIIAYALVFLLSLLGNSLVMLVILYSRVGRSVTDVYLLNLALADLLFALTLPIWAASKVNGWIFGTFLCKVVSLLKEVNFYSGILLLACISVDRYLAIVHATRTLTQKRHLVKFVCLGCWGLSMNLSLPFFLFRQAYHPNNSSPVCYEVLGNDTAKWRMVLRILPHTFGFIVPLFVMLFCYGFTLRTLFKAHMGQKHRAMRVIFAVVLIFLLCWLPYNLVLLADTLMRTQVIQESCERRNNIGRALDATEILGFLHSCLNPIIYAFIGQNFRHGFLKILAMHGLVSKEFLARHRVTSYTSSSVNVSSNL
UniProt P25025, whole entry: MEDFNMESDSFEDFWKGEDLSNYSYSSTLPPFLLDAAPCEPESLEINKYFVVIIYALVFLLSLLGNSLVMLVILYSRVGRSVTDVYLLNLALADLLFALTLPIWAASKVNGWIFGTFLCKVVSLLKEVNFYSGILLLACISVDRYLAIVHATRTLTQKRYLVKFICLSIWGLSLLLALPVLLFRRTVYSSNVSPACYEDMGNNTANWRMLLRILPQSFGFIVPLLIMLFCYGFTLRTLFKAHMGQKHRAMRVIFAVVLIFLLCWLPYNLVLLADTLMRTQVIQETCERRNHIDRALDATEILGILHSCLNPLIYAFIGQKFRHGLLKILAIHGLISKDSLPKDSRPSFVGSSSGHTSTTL

Tests used:
[1] = target: CCR7 (Homo sapiens (Human), UniProt P32248); assay: Calcium flux on Chem-1 cells expressing the chemokine receptor (FLIPR TETRA), antagonist mode; type: cell-based; conditions: antagonist activity, reference agonist at AC80
[2] = target: CXCR3 (Homo sapiens (Human), UniProt P49682); assay: as above; conditions: IC50 CXCR3, antagonist activity, reference agonist at AC80
[3] = target: CCR4 (Homo sapiens (Human), UniProt P51679); assay: as above; conditions: IC50 CCR4, antagonist activity, reference agonist at AC80
[4] = target: CXCR1 receptor (Homo sapiens (Human), UniProt P25024); assay: β-arrestin recruitment test, U2OS hCXCR1 β-arrestin cells stimulated with CXCL8; type: cell-based; conditions: inhibition of CXCL8 (10 nM) induced β-arrestin 2 recruitment; *9999 signifies not active
Method: (§1) The in vitro affinity of the compounds of the present invention for the CXCR1 and CXCR2 receptors was determined on a functional test of the β-arrestin recruitment after receptor activation type.
(§2) In order to evaluate the direct interaction of the CXCR2 or CXCR1 receptor with β-arrestin 2, a β-arrestin 2 recruitment test for CXCR2 or CXCR1 based on β-galactosidase enzyme complementation (Olson K R, Eglen R M. Beta galactosidase complementation: a cell-based luminescent assay platform for drug discovery. Assay Drug Dev Technol. 2007 February; 5(1); 137-44), as established by DiscoveRx Corporation was used. The stimulation of these two cell lines with CXCL8 (10 nM) induces β-arrestin 2 recruitment, as indicated by a significant increase in the induction factor.
(§3) β-Arrestin recruitment test: “PathHunter HEK293-CXCR2” or “U2OS hCXCR1 β-arrestin” cells (DiscoveRx Corporation) were seeded overnight at 10 000 cells/well (384-well format) in 20 μl of Opti MEM I medium. A preincubation with the antagonist or the vehicle for 30 min at 37° C. and 5% CO2 was followed by 60 minutes of stimulation with CXCL8 at 37° C. and 5% CO2. The cells were then placed at ambient temperature for 30 minutes. The PathHunter detection reagent (DiscoveRx Corporation) was added. After incubation for 60 min at ambient temperature, the β-galactosidase induced by the luminescence during the β-arrestin-CXCR2 interaction was measured for 0.3 s in an Envision 2102 Multilabel Reader (PerkinElmer Life and Analytical Sciences). The data were analyzed by means of a non-linear curve procedure using the XLFit4 exploitation software (IDBS) and the IC50 values were determined.

[5] = target: CXCR2 receptor (Homo sapiens (Human), UniProt P25025); assay: β-arrestin recruitment test, PathHunter HEK293-CXCR2 cells stimulated with CXCL8; type: cell-based; conditions: inhibition of CXCL8 (10 nM) induced β-arrestin 2 recruitment; *9999 signifies not active
Method: as §1, §2, §3

IC50 [4] [nM] | Compound | IC50 [5] [nM] | other results
77 | Cc1ccc(C(Nc2c(Nc3cccc(C(=O)N(C)C)c3O)c(=O)c2=O)C2CCCS2)o1 (single isomer, unassigned) [Example 2 (Enantiomer 1 of diastereoisomer 2), 2-Hydroxy-N,N-dimethyl-3-(2-{[(5-methylfuran-2-yl)-(tetrahydrothiophen-2-yl)methyl]amino}-3,4-dioxo-cyclobut-1-enylamino)benzamide] | – | –
692 | Cc1ccc(C(Nc2c(Nc3cccc(C(=O)N(C)C)c3O)c(=O)c2=O)C2CCCS2)o1 (single isomer, unassigned) [Example 2 (Enantiomer 2 of diastereoisomer 1), 2-Hydroxy-N,N-dimethyl-3-(2-{[(5-methylfuran-2-yl)-(tetrahydrothiophen-2-yl)methyl]amino}-3,4-dioxo-cyclobut-1-enylamino)benzamide] | – | –
1560 | Cc1ccc(C(Nc2c(Nc3cccc(C(=O)N(C)C)c3O)c(=O)c2=O)C2CCCS2)o1 (single isomer, unassigned) [Example 2 (Enantiomer 2 of diastereoisomer 2), 2-Hydroxy-N,N-dimethyl-3-(2-{[(5-methylfuran-2-yl)-(tetrahydrothiophen-2-yl)methyl]amino}-3,4-dioxo-cyclobut-1-enylamino)benzamide] | – | –
661 | Cc1ccc(C(Nc2c(Nc3cccc(C(=O)N(C)C)c3O)c(=O)c2=O)C2CCCS2)o1 (single isomer, unassigned) [Example 2 (diastereoisomer 1), 2-Hydroxy-N,N-dimethyl-3-(2-{[(5-methylfuran-2-yl)-(tetrahydrothiophen-2-yl)methyl]amino}-3,4-dioxo-cyclobut-1-enylamino)benzamide] | – | –

The next lines start with the molecule.

Compound | IC50 [4] [nM] | IC50 [5] [nM] | other results
Cc1ccc(C(Nc2c(Nc3cccc(C(=O)N(C)C)c3O)c(=O)c2=O)C2CCCS2)o1 (single isomer, unassigned) [2 (diastereoisomer 2), 2-Hydroxy-N,N-dimethyl-3-(2-{[(5-methylfuran-2-yl)-(tetrahydrothiophen-2-yl)methyl]amino}-3,4-dioxo-cyclobut-1-enylamino)benzamide] | 44 | – | IC50 [1]: 1500 nM; IC50 [2]: 1700 nM; IC50 ([2]; value of the text): 1700 nM; IC50 [3]: 52 nM
Cc1ccc(C(Nc2c(Nc3cccc(C(=O)N(C)C)c3O)c(=O)c2=O)C2(C)CCCO2)o1 (single isomer, unassigned) [Example 1 (Enantiomer 1 of diastereoisomer 2), 2-Hydroxy-N,N-dimethyl-3-(2-{[(5-methylfuran-2-yl)-(2-methyltetrahydrofuran-2-yl)methyl]amino}-3,4-dioxo-cyclobut-1-enylamino)benzamide] | 10000 | – | –
Cc1ccc(C(Nc2c(Nc3cccc(C(=O)N(C)C)c3O)c(=O)c2=O)C2CCCS2)o1 (single isomer, unassigned) [Example 2 (Enantiomer 1 of diastereoisomer 1), 2-Hydroxy-N,N-dimethyl-3-(2-{[(5-methylfuran-2-yl)-(tetrahydrothiophen-2-yl)methyl]amino}-3,4-dioxo-cyclobut-1-enylamino)benzamide] | 4550 | – | –
COC(=O)[C@@H]1CCCN1C(=O)c1cccc(Nc2c(NC(c3ccc(C)o3)C3CCCS3)c(=O)c2=O)c1F (single isomer, unassigned) [Example 3 (Enantiomer 1)] | 552 | 195 | –
COC(=O)[C@@H]1CCCN1C(=O)c1cccc(Nc2c(NC(c3ccc(C)o3)C3CCCS3)c(=O)c2=O)c1F (single isomer, unassigned) [Example 3 (Enantiomer 2)] | 8910 | – | –
COC(=O)[C@H]1CCCN1C(=O)c1cccc(Nc2c(NC(c3ccc(C)o3)C3CCCS3)c(=O)c2=O)c1O (single isomer, unassigned) [Example 6] | 108 | 30 | –
COC(=O)[C@@H]1CCCN1C(=O)c1cccc(Nc2c(NC(c3ccc(C)o3)C3CCCS3)c(=O)c2=O)c1F (single isomer, unassigned) [Example 15] | 3810 | 294 | –
COC(=O)[C@H]1CCCN1C(=O)c1cccc(Nc2c(NC(c3ccc(C)o3)C3CCCS3)c(=O)c2=O)c1O (single isomer, unassigned) [Example 20] | 43 | 21 | –
